Target: Collagenase 3 (Homo sapiens, UniProt P45452)
Test: Inhibition of matrix metalloprotease-13

## COc1ccc(S(=O)(=O)N(CC(C)C)[C@@H](CCSCc2ccc(OCc3ccccc3)cc2)C(=O)NO)cc1
  IC50: 20 nM

Source: ChEMBL document CHEMBL1132530, “Picking the S1, S1' and S2' pockets of matrix metalloproteinases. A niche for potent acyclic sulfonamide inhibitors” (Bioorg Med Chem Lett, 1999)
